# In US10472352B2, “Rac inhibitors” (Geneyus LLC, priority 2017, dated 2019):
# Test system: androgen receptor response gene (PSA) in LNCaP prostate cancer cells
# Test: Inhibition of Androgen Receptor Target Gene Transcription (PSA qPCR)
# Assay type: cell-based
# Conditions: 10 nM DHT, 4 hours, 10 uM bicalutamide, 10 uM enzalutamide, 12.5 or 25 uM 0032661
# Experimental: After 4 hours, RNA was harvested and converted into cDNA. qPCR analysis for PSA was performed on all samples and normalized to expression of GAPDH. The data, shown in FIG. 11, is expressed as fold change relative to PSA expression of the cFBS sample.
compound,measurement,value
"CNC(=O)c1ccc(N2C(=S)N(c3ccc(C#N)c(C(F)(F)F)c3)C(=O)C2(C)C)cc1F [enzalutamide, reference compound]",androgen receptor target gene transcription (PSA),inhibit the androgen receptor target gene transcription
